{"source": "patent US5541190A", "about": "“Benzo(F)quinolinones” (priority 1995, dated 1996)", "molecular_target": "T1, 5α-reductase (Homo sapiens, UniProt P18405)", "T1 construct": "host or cells: Hs68 human genital skin fibroblasts", "T1 sequence (P18405 1-259)": "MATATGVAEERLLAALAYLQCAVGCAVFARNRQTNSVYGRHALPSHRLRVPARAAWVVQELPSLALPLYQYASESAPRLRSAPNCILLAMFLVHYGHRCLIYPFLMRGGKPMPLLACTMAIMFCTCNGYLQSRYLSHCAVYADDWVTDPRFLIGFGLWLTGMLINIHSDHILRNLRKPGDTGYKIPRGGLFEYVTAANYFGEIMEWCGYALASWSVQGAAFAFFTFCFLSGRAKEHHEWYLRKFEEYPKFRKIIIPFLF", "test": "Inhibition of 5α-reductase activity (testosterone to 5α-dihydrotestosterone conversion) in Hs68 human genital skin fibroblasts", "assay_type": "cell-based", "conditions": "0.316 μM test compound, 12 μM testosterone substrate, four hours", "procedure": "Cell Culture:5α-Reductase activity was measured using Hs68 human genital skin fibroblasts which were originally purchased from the American Type Culture Collection (Rockville, Md.). The cells were grown in Dulbecco's Modified Eagle's Medium (DMEM) plus 10% stripped fetal bovine serum which was supplemented with amphotericin B (0.25 mg/ml) and gentamicin (25.0 mg/ml) (GIBCO, Grand Island, N.Y.). The serum was stripped of endogenous steroids by incubation with dextran-coated charcoal prior to its addition to the media. The cells were maintained at 37° C. in an atmosphere of 95% air, 5% CO2 and were passaged every 7-10 days by exposure to a trypsin-EDTA solution (0.025% trypsin, 0.265 mM EDTA). […]\nAt the end of the incubation the media was collected and transferred to an extraction tube containing 5 ml of toluene-ethanol (9:1), to which has been added 20-250 μg each. of unlabeled carrier steroids (estriol, estradiol, estrone, 5α-androstan-3α,17β-diol, 5α-androstan-3β,17β-diol, -androstene-3,17-dione, 5α-androstan-3,17-dione, testosterone, and 5α-dihydrotestosterone) (Steraloids, Inc., Wilton, N.H.). […] The [^14 C]-steroids were included as recovery standards to quantify procedural losses. […] The organic phase was collected and the samples taken to dryness, redissolved in dichloromethane-methanol (9:1) and were analyzed by thin layer chromatography using one of the methods described below. […]", "data": [{"smiles": "CN1C(=O)C=C[C@]2(C)c3ccc(Cl)cc3CC[C@@H]12", "note": "[Example 60, (R) (+)-trans-4-methyl-8-chloro-10b-methyl-3,4,4a,5,6,10b-hexahydrobenzo[f]quinolin-3-one]", "values": [{"measurement": "inhibition at 0.316 µM", "result": 86.7, "unit": "%"}]}]}
